Biological target: human TSP1 (Homo sapiens, UniProt P07996)
Experiment: Cell adhesion inhibition assay (HUVEC adhesion to TSP1-coated plate)
Details: read-out: cell adhesion inhibition (Table 4), tested form: TFA
Description: As referred to herein, the TSP1 inhibitory activity refers to the activity to inhibit one or more effects of TSP1, including angiostatic effect. The TSP1 inhibitory activity is measured by a cell adhesion inhibition assay using human TSP1 and vascular endothelial cells as described hereinbelow in the Examples section. In this assay, when the 50% inhibitory concentration (IC5O) of a test substance is 200 nM or less, the test substance is determined to have TSP1 inhibitory activity.
(Test Example 1) Cell Adhesion Inhibition Assay
I. Materials and Reagents
96 well Non-treated White with clear bottom (Coster, 3632)
BrightMax adhesive sealing films (EXCEL Scientific, WT50) […]
To maintain HUVECs, EGM2-MV and a collagen coated dish were used (the cells were ceased to be used after 10th or 1 lth passage since the cell proliferation rate declined at this stage). […] The cells were resuspended in a DMEM buffer, counted for cell number, and diluted to 10000 cells/50 μL. […]
After cell adhesion was confirmed, the culture medium was completely removed by an aspirator, and 100 μL/well of DMEM/0.5% BSA was gently dispensed. […] Fluorescence emission was detected using EnVision Xcite Multilabel Reader (produced by Perkin Elmer).
On the basis of the measured fluorescence values, the IC50 values (nM) of the different macrocyclic polypeptides for inhibition of cell adhesion were calculated.

Protein sequences, listed by entry. Tags and fused reporters are not part of them. Residues count along the entry.
UniProt P07996, 19-1170 limits assumed: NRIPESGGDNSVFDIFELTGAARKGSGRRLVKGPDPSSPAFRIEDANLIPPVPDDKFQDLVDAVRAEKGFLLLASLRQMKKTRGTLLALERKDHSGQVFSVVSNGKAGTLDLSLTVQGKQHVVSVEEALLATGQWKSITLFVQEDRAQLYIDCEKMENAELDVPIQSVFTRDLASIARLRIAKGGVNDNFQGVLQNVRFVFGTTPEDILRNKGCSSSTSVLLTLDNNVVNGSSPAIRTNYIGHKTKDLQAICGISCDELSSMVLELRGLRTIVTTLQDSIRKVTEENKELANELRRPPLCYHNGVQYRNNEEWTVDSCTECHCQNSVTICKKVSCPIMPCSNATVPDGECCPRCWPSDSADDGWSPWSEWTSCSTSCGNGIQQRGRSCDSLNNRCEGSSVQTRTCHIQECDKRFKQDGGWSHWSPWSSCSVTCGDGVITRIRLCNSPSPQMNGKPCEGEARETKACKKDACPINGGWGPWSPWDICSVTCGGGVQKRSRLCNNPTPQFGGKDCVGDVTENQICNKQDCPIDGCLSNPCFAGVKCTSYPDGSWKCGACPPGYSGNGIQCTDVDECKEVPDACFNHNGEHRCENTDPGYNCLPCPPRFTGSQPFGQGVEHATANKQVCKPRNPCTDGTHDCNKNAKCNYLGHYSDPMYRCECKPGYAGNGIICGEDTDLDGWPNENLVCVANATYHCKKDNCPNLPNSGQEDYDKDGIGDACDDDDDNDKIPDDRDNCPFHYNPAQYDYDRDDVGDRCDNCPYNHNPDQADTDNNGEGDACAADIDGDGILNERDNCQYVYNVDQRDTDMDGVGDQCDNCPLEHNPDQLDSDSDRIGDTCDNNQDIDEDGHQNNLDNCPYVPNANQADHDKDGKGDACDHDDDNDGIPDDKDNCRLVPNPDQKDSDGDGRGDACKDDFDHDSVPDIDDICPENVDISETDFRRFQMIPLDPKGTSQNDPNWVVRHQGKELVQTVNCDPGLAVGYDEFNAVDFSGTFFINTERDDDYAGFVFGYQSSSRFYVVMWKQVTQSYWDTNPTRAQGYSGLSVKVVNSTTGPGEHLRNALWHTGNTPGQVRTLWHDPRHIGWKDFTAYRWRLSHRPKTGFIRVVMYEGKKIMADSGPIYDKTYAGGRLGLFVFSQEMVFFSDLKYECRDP

## CCCC[C@@H]1NC(=O)[C@H](Cc2c[nH]c3ccccc23)NC(=O)[C@H](CC(=O)O)NC(=O)[C@H](CCCNC(=N)N)NC(=O)CNC(=O)[C@H](CO)NC(=O)[C@H]([C@@H](C)CC)NC(=O)[C@H](Cc2ccc3ccccc3c2)NC(=O)CS(=O)(=O)C[C@@H](C(N)=O)NC(=O)[C@H](C(C)C)NC(=O)[C@H](Cc2c[nH]c3ccccc23)NC(=O)[C@H](CCCCN)NC1=O
  IC50: 10.7 nM

Source: patent US11149066B2, “Thrombospondin 1-binding peptide” (DAIICHI SANKYO COMPANY, LIMITED, priority 2016, dated 2021)
